In patent EP4707263A1, “FLUORINATING AGENT AND FLUORINATION METHOD” (Daikin Industries, Ltd., priority 2024, dated 2025):

Assay: pKa (acid dissociation constant) determined by neutralization titration
Assay type: physicochemical
Settings: acid dissociation constant at 25°C in water

Substance	pKa
tBuONa [Base B-4]	17
tBuOK [Base B-1]	17
